This note sets out measurements from patent US7208282B2, “Rhesus monkey, dog and ferret melanin-concentrating hormone type 2 receptor” (priority 2001, dated 2007).

Chains of the proteins cited; added tags and fusions are not shown. Lines headed by an entry give the natural chain unless they say otherwise; changes in a name come on top.
UniProt Q969V1: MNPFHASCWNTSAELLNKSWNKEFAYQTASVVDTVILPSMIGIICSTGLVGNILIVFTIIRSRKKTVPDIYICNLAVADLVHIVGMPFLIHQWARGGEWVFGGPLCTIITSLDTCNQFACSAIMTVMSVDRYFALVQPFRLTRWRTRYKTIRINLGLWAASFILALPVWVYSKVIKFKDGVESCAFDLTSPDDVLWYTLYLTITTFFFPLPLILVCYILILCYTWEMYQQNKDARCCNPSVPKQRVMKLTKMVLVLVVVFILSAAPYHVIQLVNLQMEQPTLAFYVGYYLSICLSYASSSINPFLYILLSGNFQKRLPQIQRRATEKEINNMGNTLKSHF
UniProt Q8MJ88: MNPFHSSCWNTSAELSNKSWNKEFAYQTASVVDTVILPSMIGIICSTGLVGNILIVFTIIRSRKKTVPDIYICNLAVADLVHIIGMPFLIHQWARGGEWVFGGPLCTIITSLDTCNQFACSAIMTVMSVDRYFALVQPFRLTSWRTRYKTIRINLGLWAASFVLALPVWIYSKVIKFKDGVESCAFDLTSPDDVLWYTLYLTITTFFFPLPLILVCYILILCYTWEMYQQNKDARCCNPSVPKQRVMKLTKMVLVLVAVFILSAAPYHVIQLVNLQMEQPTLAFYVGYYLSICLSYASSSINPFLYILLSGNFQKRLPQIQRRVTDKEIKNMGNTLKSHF

Assay [1] addresses T1, human MCH-2R (Homo sapiens, UniProt Q969V1).
T1 construct: expressed in transfected cells; host or cells: COS-7
The assay can be described thus: aequorin bioluminescence functional assay, human MCH-2R. The assay is classed as cell-based. As to conditions: read-out: Function (EC50), aequorin HEK-293 cells. An excerpt:
The aequorin bioluminescence assay is a reliable test for identifying G-protein-coupled receptors which couple through the G protein subunit family consisting of Gq and G11 which leads to the activation of phospholipase C, mobilization of intracellular calcium, and activation of protein kinase C. (Ungrin, et al., Anal. Biochem. 1999. 272:34–42.)
For expression studies, HEK-293 cells stably expressing the aequorin reporter protein were transiently transfected with MCH-2R human or ferret expression plasmid or stable cell lines were derived (human MCH-2R). The assay was performed using a Luminoscan RT luminometer (Labsystems Inc., Gaithersburg, Md.).
293AEQ17/Aequorin cells (Button, et al., 1993. Cell Calcium 14, 663–671), were cultured for 72 hours and the apo-aequorin in the cells was charged for 1 hour with coelenterazine (10 μM) under reducing conditions (300 μM reduced glutathione) in ECB buffer (140 mM NaCl, 20 mM KCl, 20 mM HEPES-NaOH, pH 7.4, 5 mM glucose, 1 mM MgCl2, 1 mM CaCl2, 0.1 mg/mL bovine serum albumin). […] 100 μL of cell suspension (corresponding to 5×10^4 cells) was then injected into the test plate containing ligands, and the integrated light emission was recorded over 30 seconds, in 0.5-second units. 20 μL of lysis buffer (0.1% final Triton X-100 concentration) was then injected and the integrated light emission recorded over 10 seconds, in 0.5-second units. […]

Assay [2] has as its target T1, human MCH-2R. The assay can be described thus: membrane radioligand binding assay, transfected COS-7 cells, human MCH-2R. As to conditions: read-out: Binding (IC50), COS-7 membranes. The protocol: Membrane binding assays were performed on transiently-transfected COS-7 cells using human or ferret MCH-2R in the plasmid vector pCI-neo (Promega, Madison, Wis.), COS-7 cells were cultured in Dulbecco's modified Eagle medium (Gibco BRL, Rockville, Md.) with 10% heat inactivated fetal calf serum.
A suspension of 7×10^6 COS-7 cells were transfected with 20 μg of pCI-neo/MCH-2R plasmid by electroporation. (Strader, et al., 1987. Proc. Natl. Acad. Sci. USA 84, 4384–4388). Cells were harvested after 60–72 hours. Membranes were prepared from transient and stable transfectants by hypotonic lysis, frozen in liquid nitrogen, and stored at −80° C. (MacNeil, et al., 1994. Biochem. Biophys. Res. Commun. 198, 328–334.)
A binding assay was set up in 96 well plates. Total volume per binding assay point was 200 μL. Binding conditions were 50 mM Tris pH 7.4, 10 mM MgCl2, 2 mM EDTA 200 μg/mL bacitracin, 1 μM phosphoramidon, 2.5 to 5 μg protein, with and without 10 μM MCH unlabeled peptide as a competitor. Dose response curves were from 10 μM in 5 fold or 3-fold dilution series for 11 points. The mixture was shaken for 5 minutes on a platform shaker, and incubated at room temperature for 1 hour. Filter plates were presoaked in 1% PEI. […] 30 μL microscintillant was added per well and counted for 1.5–3 minutes in inverted format on Packard TopCount. […]

Assay [3] deals with T2, rhesus MCH-2R (Macaca mulatta, UniProt Q8MJ88).
T2 construct: expressed in transfected cells; host or cells: HEK293T
The assay can be described thus: inhibition of [125I]-[Phe13, Tyr19]-MCH binding to rhesus MCH-2R on HEK293T cells (filtration). As to conditions: read-out: IC50, inhibition of [125I]-[Phe13, Tyr19]-MCH binding, 100 pM [125I]-[Phe13, Tyr19]-MCH, 30 minutes at 37° C. Also noted: species or system rhesus monkey. The protocol: HEK293T cells transfected with pEF1/V5-HisC/MCH-2R plasmid were harvested by phosphate-buffered saline containing 2 mM EDTA 48 hours after transfection, and washed once with the assay buffer (Hanks' balanced salt solution containing 20 mM HEPES, 0.2% BSA and 100 μg/ml bacitracin, pH 7.4). The cells (4×10^5 cells/tube) were then incubated in 250 μl/tube of the same buffer with 100 pM [^125I]-[Phe^13, Tyr^19]-MCH for 30 minutes at 37° C. After the incubation, bound and free [^125I]-[Phe^13, Tyr^19]-MCH were separated by filtration using a Unifilter GF/B glass filter (Packard Instrument) presoaked with 0.3% polyethylenimine. The remaining radio activity on the filter was quantitated using a TopCount HTS (Packard instrument) with a Microscint 0 scintillation cocktail (Packard instrument). Specific binding was defined as the difference between total binding and nonspecific binding in the presence of 1 μM cold [Phe^13, Tyr^19]-MCH. Data were analyzed using GraphPad Prism Version 3.0.

Assay [4] concerns the target T2, rhesus MCH-2R. The experiment in a line: intracellular calcium (fura-2) in HEK293T cells transiently expressing rhesus MCH-2R. Type of assay: cell-based, rhesus monkey. As to conditions: read-out: EC50, increase in intracellular calcium levels. From the text:
The entire coding sequence of rhesus MCH-2R was cloned into BamHI-NotI site of pEF1/V5-His C plasmid vector (Invitrogen). The resultant construct was transfected into HEK293T cells using LipofectAmine PLUS (Life Technologies, Rockville, Md.) according to the manufacture's instructions. Human embryonic kidney cells constitutively expressing SV40 large T antigen (HEK-293T) were maintained in Dulbecco's modified Eagle medium (Life Technologies) supplemented with 10% fetal bovine serum, 100 units/ml penicillin-G and 100 μg/ml streptomycin at 37° C. with 5% CO2 in a humidified atmosphere.
The intracellular calcium ion concentration ([Ca^2+]i) was measured fluorometrically using a Ca^2+-sensitive fluorescent dye, fura-2. […] Two point five microliters of dimethyl sulfoxide (DMSO) solution of MCH (Peptide Institute, Osaka, Japan) or [Phe^13, Tyr^19]-MCH (Bachem, Bubendorf, Switzerland) was added into the cell suspension, and fluorescent intensity at an emission wavelength of 500 nm and excitation wavelengths of 340 and 380 nm was monitored with a CAF-110 intracellular ion analyzer (JASCO, Tokyo, Japan). Data were analyzed using the software GraphPad Prism Version 3.0 (GraphPad Software, Inc., San Diego, Calif., USA).

Take Melanin-concentrating hormone [MCH]: the EC50 was found to be 43 nM on human MCH-2R [1] and 24 nM at rhesus MCH-2R [4]. Besides, the IC50 is 10 nM at human MCH-2R [2] and 9.9 nM at rhesus MCH-2R [3].

For orientation: EC50 means the concentration at which the effect is half-maximal. What is called IC50 is the point on the concentration scale where inhibition reaches its midpoint.
